Results published in US20210386826A1, “Combination for Treating Cancer” (Pfizer Inc., priority 2018, published 2021).

System: STAT5 phosphorylation in lymphocytes
Assay: flow cytometry of STAT5 phosphorylation in lymphocytes at various time points after administration in mice
Type: in vivo
Conditions: after administration to mice
Experimental: RSLAIL-2 is generally referred to as long-acting. For the purposes herein, the long acting nature of an IL-2Rβ biased agonist is typically determined using flow cytometry to measure STAT5 phosphorylation in lymphocytes at various time points after administration of the agonist to be evaluated in mice. As a reference, the signal is lost by around 24 hours with IL-2, but is sustained for a period greater than that for a long-acting IL-2Rβ-biased agonist.

Which “time by which STAT5 phosphorylation signal is lost” value does the source give for “IL-2: interleukin-2 cytokine, used as the reference standard [reference compound]” here?
Its value is “around 24 hours”.
